Assay outcomes from PubChem BioAssay.
AF4-AF9 inh: inhibitors of human MLL-AF4/AF9 interaction; 0.47% of 350,000 active; AID 651704; AlphaScreen, biotin-AF4 peptide binding to FLAG-AF9; inhibition, % at 10 µM;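 active = every replicate reaching a set inhibition limit, whatever the replicate mean, cut at about 25% in these data; inconclusive = mean inhibition reaches that limit but some replicates miss it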
RAD52 anneal inh: inhibitors of human RAD52 DNA annealing; AID 651710; 0.46% of 360,000 active; inhibition, % at 18.7 µM; P43351; recombinant RAD52 DNA annealing, FRET fluorescence;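 active = every replicate showing at least 50% inhibition; inconclusive = mean inhibition at least 50% but not in every replicate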
UUG fidelity: alters start codon recognition fidelity in yeast. S. cerevisiae UUG-firefly luciferase reporter, luminescence/redox ratio. 350,000 tested, 0.13% active. activity score, % at 18.7 µM. AID 602363;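 active means replicate mean at a twofold rise or more, about +100% in these data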;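 further: firefly luciferase made from a UUG start codon reports start codon fidelity; reporter light over untreated wells divided by growth signal over untreated wells; some hits fall short of that in this replicate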
E-selectin induc: E-selectin induction on HUVECs; HUVEC E-selectin immunofluorescence imaging; normalized: neutral wells 0, TNF-alpha wells 100; activation, % at 7.58 µM; 0.37% of 260,000 active;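 active = mean E-selectin-positive cell signal at least 10% of the positive control, reached in at least 60% of replicates, without over 20% cell loss; inconclusive = no rule given, readout overlaps actives, possibly toxicity-flagged; inactive = the rest, including those meeting only one limit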
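System: HUVEC / Compound: single concentration / Signal: immunofluorescence imaging / Read-out: percent E-selectin-positive cells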
RAD54 branch: inhibitors of human RAD54 branch migration | RAD54 Holliday junction branch migration, FAM/BHQ fluorescence | inhibition, % at 10.4 µM | 0.14% of 360,000 active | AID 602329;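 active = mean normalized replicate activity at least 40 and at least half of replicates scoring 40 or more; inconclusive = only one of the two criteria met; inactive = mean below 40 and under half of replicates reaching 40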;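 also: inhibitors cause a drop in the FAM fluorescence signal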
SIRT5 block: blocks human SIRT5 desuccinylation of peptide; Purified SirT5, succinyl-peptide AMC, trypsin-coupled fluorescence; 1.1% of 330,000 active; inhibition, % at 15 µM; in the data active = inhibition above about 15%; inconclusive = no clear call, values can overlap the other calls
A number is an active result; – = inactive; ? = inconclusive; · = no result given. Sampled rows, rich in hits. Any-hit rate of the full collection: about 1.8%.

SMILES	AF4-AF9 inh	RAD52 anneal inh	UUG fidelity	E-selectin induc	RAD54 branch	SIRT5 block
CCCCn1c(N)c(N(CC(C)C)C(=O)c2ccc(S(=O)(=O)N3CCCCC3)cc2)c(=O)[nH]c1=O	–	–	–	58	–	–
Cc1ccc(-c2nn(-c3ccccc3)cc2C=C2SC(=S)N(CCS(=O)(=O)O)C2=O)cc1	–	–	–	–	–	55
O=C1C(=Cc2cn(-c3ccccc3)nc2-c2ccc(OCc3ccccc3)cc2)SC(=S)N1CCS(=O)(=O)O	–	–	–	–	–	–
COc1ccc2c3c([nH]c2c1)[C@H](CO)N(C(=O)CC1CC1)CC31CN(Cc2cccnc2)C1	–	–	·	–	·	–
COc1ccc(NC(=O)Nc2ccc3c(c2)C(=O)N([C@H](C)CO)C[C@H](C)[C@@H](CN(C)Cc2ccc4c(c2)OCO4)O3)cc1	–	–	–	–	–	16
COc1ccc(CN(C)C[C@@H]2Oc3ccc(NC(=O)Nc4ccc5c(c4)OCO5)cc3C(=O)N([C@@H](C)CO)C[C@@H]2C)cc1	–	–	–	–	–	–
COc1ccc(CN(C)C[C@@H]2Oc3ccc(NC(=O)Nc4ccc5c(c4)OCO5)cc3C(=O)N([C@H](C)CO)C[C@H]2C)cc1	–	–	–	–	67	–
COc1ccc(CN(C)C[C@@H]2Oc3ccc(NC(=O)Nc4ccc5c(c4)OCO5)cc3C(=O)N([C@@H](C)CO)C[C@H]2C)cc1	–	–	–	–	61	–
O=C(C1CCCCC1)N1CC2(C1)[C@@H](c1ccccc1)[C@@H](CO)N2Cc1ccc(Cl)cc1	–	–	·	–	·	–
CSC(=NC(C)c1ccccc1)NS(=O)(=O)c1cccs1 (stereo unspecified)	–	–	–	–	–	–
CSC(=NS(=O)(=O)c1ccc(N)cc1)NS(=O)(=O)c1cccs1	–	–	·	·	·	53
C[C@H]1CN([C@@H](C)CO)C(=O)c2cccc(NC(=O)C3CCCCC3)c2O[C@H]1CN(C)Cc1ccc(-c2ccccc2)cc1	·	·	–	–	·	·
C[C@@H]1CN([C@@H](C)CO)C(=O)c2cccc(NC(=O)Nc3ccc(F)cc3)c2O[C@@H]1CN(C)Cc1ccncc1	–	–	–	65	–	–
C[C@@H]1CN([C@H](C)CO)C(=O)c2cccc(NC(=O)Nc3ccccc3)c2O[C@H]1CN(C)Cc1ccncc1	–	–	–	–	–	–
C[C@@H]1CN([C@H](C)CO)C(=O)c2cccc(NC(=O)Nc3ccc(F)cc3)c2O[C@H]1CN(C)Cc1ccncc1	–	–	–	40	–	·
C[C@H]1CN([C@@H](C)CO)C(=O)c2cccc(NC(=O)Nc3ccc(F)cc3)c2O[C@H]1CN(C)Cc1ccncc1	–	–	–	58	–	–
C[C@@H]1CN([C@H](C)CO)C(=O)c2cccc(NC(=O)Nc3ccc(C(F)(F)F)cc3)c2O[C@H]1CN(C)Cc1ccncc1	?	–	–	–	–	–
CCCNC(=O)Nc1ccc2c(c1)C(=O)N(C)C[C@@H](OC)[C@@H](C)CN(CCC(F)(F)F)[C@H](C)CO2	·	·	·	–	·	·
Nc1ccc(-c2c3ccc(=O)cc-3oc3cc(O)ccc23)cc1C(=O)O	–	–	·	·	·	19
O=c1ccc2c(-c3ccccc3)c3ccc(O)cc3oc-2c1	–	–	–	–	–	–
COc1cc2c(c(O)c1OC)C1Cc3ccc(OC)c(OC)c3CN1CC2 (stereo unspecified)	–	–	–	·	–	–
COc1ccc2cc1Oc1ccc(cc1)C[C@H]1c3c(cc(OC)c4c3Oc3c(ccc5c3[C@H](C2)N(C)CC5)O4)CCN1C	·	·	–	·	74	·
COc1ccc2cc1Oc1ccc(cc1)CC1c3c(cc(OC)c4c3Oc3cc5c(cc3O4)CCNC5C2)CCN1C (stereo unspecified)	·	·	–	·	91	·
Cc1ccc(C)c(S(=O)(=O)N2CCCCC2CCNC(=O)C(=O)NCCc2ccco2)c1 (stereo unspecified)	–	–	–	62	–	–
CNC(=O)c1cc2c(ccc3ccccc32)o1	–	–	·	78	·	–
O=C(NC1CCCC1)c1cc2c(ccc3ccccc32)o1	·	·	–	·	–	·
CCCNC(=O)C[C@H]1CC[C@@H]2[C@H](COC[C@H](O)CN2C(=O)Nc2ccccc2OC)O1	–	–	–	–	–	–
CCN(CC)CCNC(=O)c1ccc2c(c1NCCO)C(=O)c1ccccc1C2=O	–	87	–	·	122	–
